{"source": "PubChem BioAssay AID504796", "about": "(The Scripps Research Institute Molecular Screening Center, 2011)", "assay": "fluorescence polarization artefacts, biochemical, artefact control for PKA-R2B activator project (AID 504796);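 further: Cy5 labelled IP20 peptide probe with compound but no PKA protein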", "conditions": "FP artifact counterscreen, at 11.4 µM, stronger effect = higher value", "note": "The entries are a selection whose mix differs from that of the whole data set. Active and inactive are the calls of the source. No stated cut-off is given here; in the data, active means activation above about 20%; inactive means the rest."}
{"compound": "c1nnnn1CCn1cnnn1", "values": [{"measurement": "activation", "value": "inactive: 0.27%"}]}
